Values quoted from earlier work as cited in patent US20020001615A1, “Combined interferon alfa and lipsosmal-encapsulated all-trans retinoic acid, including preparation and use” (Aronex Pharmaceuticals, Inc., priority 2000, published 2002).

Test system: metastatic RCC
Conditions: IL-2 based therapy

In the case of “IL-2: Interleukin-2, biological response modifier”, the “proportion of patients experiencing significant responses” value is given as “approximately 15%”.
